US10973922B2, “Glycoprotein-toxic payload conjugates” (GLYKOS FINLAND OY, priority 2013, dated 2021)

Test system: SKOV-3 ovarian cancer cell
Assay: In vitro cytotoxicity of dolastatin derivatives (PrestoBlue cell viability)
Assay type: cell-based, Human
Conditions: SKOV-3, applied to cell culture medium
Protocol: Human ovarian cancer cell line SKOV-3 was from the ATCC (Manassas, Va., USA). The cells were grown according to the manufacturer's recommendations. Log phase cultures were collected and 5000 cells/well were seeded onto 96-well plates and incubated for 24 h. Serial dilutions of test molecules from a stock solution of 100 μM in 10% DMSO were made in cell culture medium, added to cells (maximum concentration of dimethylsulphoxide was 1%) and cultures were incubated further for 96 h. Cell viability was evaluated using PrestoBlue cell viability reagent (Life Technologies, Carlsbad, Calif., USA) according to the manufacturer's instructions. Cells were incubated for 2 h, and dye reduction was measured by absorbance at 570 nm. The compounds were assayed 1-2 times in triplicate.
Results of an exemplary assay are shown in FIG. 1, in which compound numbering is according to Example 1. The results are expressed in Table 1 as IC50 values of the analyzed derivatives.

Substance	cytotoxicity compared to 1 (MMAF)
N-(6-O-propargyl-D-galactosyl)-MMAF [Compound 3]	equally or only slightly less cytotoxic
N-(6-azido-6-deoxy-D-galactosyl)-MMAF [Compound 4]	equally or only slightly less cytotoxic
